{"source": "patent US5364879A", "about": "“Medical uses of trioxolane and diperoxide compounds” (Cliveden Ltd., priority 1994, dated 1994)", "test_system": "yeast infections of the vagina", "conditions": "suppository, third group", "data": [{"smiles": "Clc1ccccc1C(c1ccccc1)(c1ccccc1)n1ccnc1", "note": "[clotrimazole]", "values": [{"measurement": "irritation", "value": "a number of these patients complain of irritation"}, {"measurement": "reddening of the vagina", "setting": "in patients complaining of irritation", "value": "a significant reddening of the vagina is present"}]}]}
